Experimental data as given in patent US20060167229A1, “Biologically active peptide conjugates” (priority 2002, published 2006).

Columns and labels:
[1] = test system: Sheep red blood cells (SRBC); assay: Humoral immunity (SRBC hemolysis index) of mice bearing transplanted B16 melanoma; format: in vivo, C57BL/6 mice; parameters: key: index = (OD540 sample ÷ reference OD540) × 500; conditions: controls: rhIL-2, rmIFN-γ 3 × 10^5 IU/kg, cyclophosphamide 20 mg/kg, saline 19.0 ± 9.1
Protocol: Intraperitoneal injection, once per day. […] Treatment of all groups with testing substance lasted for 30 days or until the animal died unless otherwise specified.
Stock B16 mouse melanoma cells were incubated in DMEM/F12 medium supplemented with 10% fetal bovine serum, 37° C./5% CO2 for 72 hrs, then washed 3-4 times with Hank's solution. The cell concentration was adjusted to 1×10^5 per ml with Hank's solution and 0.1 ml of the cell suspension was injected via the tail vein into the testing mice to generate the B16 melanoma bearing animal model. Treatment with test substance started as described in section Method 1.
Sheep red blood cells (SRBC) were prepared by collecting blood from the cervical vein and put into a sterile flask with glass beads. The flask was shaken for 3 minutes and the blood then mixed with Alsever solution (glucose 2.05 g, NaCl 0.4 g, […] 0.8 g, adjust to 100 ml with distilled water) and stored at 4° C. Immediately before use, samples were centrifuged at 130 g, 5 minutes to collect the SRBC. The cells were washed two times by re-suspension and centrifugation in normal saline. […]
Reference OD540 nm was obtained by mixing 0.25 ml SRBC suspension with Drabkin solution to 4 ml and placed at room temperature for 10 minutes before OD540 nm was taken. […] The Pathological Changes were Recorded, and the Numbers of Melanoma Lung Metastasis Foci Were Counted. […]

mononuclear phagocyte = assay: Carbon particle clearance test, phagocytosis function; format: in vivo, BALB/c mice; parameters: key: α = cube root of K × (body weight ÷ liver+spleen weight); conditions: healthy mice, saline 5.1 ± 0.6
Protocol: On the next day after the last test substance administration (day 16), the mice were injected with […] body weight India ink (5 times dilution with normal saline) from the tail vein.
One minute and five minutes after Indian ink injection, 20 μl blood was obtained from the eye canthus with a heparinized tubing. The blood was mixed with 2 ml 0.1% w/v Na2CO3 and then OD680 nm obtained. The outline clear index K was calculated by the following formula: K=(lgA1−lgA2)÷(t2−t1)
One day after the last test substance administration (day 16), the liver, spleen, and thymus gland were separated and blotted dry with filter paper and weighed. The phagocytosis index α was calculated as below: α=(^3√{square root over ( )}K)(W÷WLS)

[2] = test system: ascitic fluid type liver cancer H22; assay: Survival of mice with transplanted ascitic fluid type liver cancer H22; format: in vivo, BALB/c mice; conditions: controls: rhIL-2, rmIFN-γ 3 × 10^5 IU/kg, cyclophosphamide 20 mg/kg; saline 26.2 ± 6.8
Protocol: Intraperitoneal injection, once per day. […] The cyclophosphamide groups were treated on the next day after transplanting the cancer cells. Treatment of all groups with testing substance lasted for 30 days or until the animal died unless otherwise specified.
Stock H22 cells were incubated in DMEM/F12 medium supplemented with 10% fetal bovine serum, 37° C./5% CO2 for 72 hrs, then washed 3-4 times with Hank's solution at room temperature. Adjust cell concentration to 1-2×10^9 per litre with Hank's solution. 0.2 ml of the cell suspension was implanted to the abdominal cavity of several BALB/c mice for 6-8 days. The mice were killed by cervical vertebra dislocation. Ascitic fluid of the mice was collected aseptically and the cell concentration adjusted to 1×10^6 per ml with Hank's solution. 0.2 ml of the cell suspension was implanted into the abdominal cavity of healthy mice to generate the H22 carrying mouse model for ascitic fluid type liver cancer. Administration of test substance started as described in section Method 1. Survival data of the mice was recorded. If the animal survived longer than the experiment, the survival days was recorded as the duration of the experiment. […] The survival index was calculated according to the following formula: Survival index=(mean survival days in treatment group−mean survival days of control group)÷mean survival days of control group×100% 4. […]

IL-2: recombinant human IL (rhIL)-2, Shanghai Huaxin Biotech Inc.; positive control
Hemolysis index [1]: 49.3 ± 24.7 | X ± SD (phagocytotic index) (mononuclear phagocyte; peptide 0.5 μg/kg/day i.p. 15 days (IFN-γ, IL-2 3×10^5 IU/kg/day)): 5.7 ± 0.8 | X ± SD (phagocytotic index) (mononuclear phagocyte; peptide 5 μg/kg/day i.p. 15 days (IFN-γ, IL-2 3×10^5 IU/kg/day)): 5.7 ± 0.8 | X ± SD (phagocytotic index) (mononuclear phagocyte; peptide 50 μg/kg/day i.p. 15 days (IFN-γ, IL-2 3×10^5 IU/kg/day)): 5.7 ± 0.8 | X ± SD (phagocytotic index) (mononuclear phagocyte; peptide 500 μg/kg/day i.p. 15 days (IFN-γ, IL-2 3×10^5 IU/kg/day)): 5.7 ± 0.8 | Survival days [2]: 13.6 ± 0.5 days
